The text below walks through data of US20240368104A1, “Novel Dialkoxynaphtho[2,3-C]Furan-1(3H)-One Derivatives and Pharmaceutical Composition For Preventing or Treating Respiratory Disease or SARS-COV-2 Infection Disease, Comprising Same” (priority 2021, published 2024).

A value given as a limit tells only on which side of the number the result lay.

The nature of data set [1]: in vitro. Conditions: dog, MDCK cells (infected with influenza A/PR/8/34 H1N1).
For data set [2], the system named is influenza virus standard strain H1N1 (A/PR/8/34; H1N1). The experiment in a line: Inhibitory effect against influenza virus standard strain H1N1 in MDCK cells. The data set is classed as cell-based. The settings on record: 66 hours, read-out: H1N1 inhibition (EC50).

The CC50 is the concentration at which the toxic effect on the cells reaches its halfway point. Read a high CC50 as lower toxicity to the cells. The EC50 is the concentration that produces a half-maximal response.

Compound `COc1cc2cc3c(c(-c4ccc(N5CCSCC5)nc4)c2cc1OC)C(=O)OC3` [Example 10, 6,7-dimethoxy-9-(6-thiomorpholinopyridin-3-yl)naphtho[2,3-c]furan-1(3H)-one] returned a CC50 at 66 h in data set [1] of 1230 nM. Moreover, the EC50 in data set [2] worked out at 170 nM.
The compound `COc1cc2cc3c(c(-c4cnc(N5CCOCC5)nc4)c2cc1OC)C(=O)OC3` [Example 51, 6,7-dimethoxy-9-(2-morpholinopyrimidin-5-yl)naphtho[2,3-c]furan-1(3H)-one] had a CC50 at 66 h in data set [1] of 1760 nM. Further, the EC50 in data set [2] stood at 107 nM.
For `COc1cc2cc3c(c(-c4ccc5occc5c4)c2cc1OC)C(=O)OC3` [Example 52, 9-(benzofuran-5-yl)-6,7-dimethoxynaphtho[2,3-c]furan-1(3H)-one] the same measures were 4470 nM and 1880 nM.
For `COc1cc2cc3c(c(-c4ccc(N5CCCCC5)nc4)c2cc1OC)C(=O)OC3` [Example 123, 6,7-dimethoxy-9-(6-(piperidin-1-yl)pyridin-3-yl)naphtho[2,3-c]furan-1(3H)-one] the same measures were 2030 nM and 198 nM.
On the same counts, the results for `COc1cc2cc3c(c(-c4ccc(N(C)[C@H]5CCc6c(cccc6OC)C5)nc4)c2cc1OC)C(=O)OC3` [Example 164, (S)-6,7-dimethoxy-9-(6-((5-methoxy-1,2,3,4-tetrahydronaphthalen-2-yl)(methyl)amino)pyridin-3-yl)naphtho[2,3-c]furan-1(3H)-one] are more than 100000 nM and 17200 nM.
`COc1cc2cc3c(c(-c4ccc5c(c4)N(C)CCC5)c2cc1OC)C(=O)OC3` [Example 170, 6,7-dimethoxy-9-(1-methyl-1,2,3,4-tetrahydroquinolin-7-yl)naphtho[2,3-c]furan-1(3H)-one]: in data set [1], the CC50 at 66 h is 6820 nM. Also, the EC50 in data set [2] was 1670 nM.
In data set [1], `COc1cc2cc3c(c(-c4ccc(N(C)Cc5ccc(C)o5)nc4)c2cc1OC)C(=O)OC3` [Example 179, 6,7-dimethoxy-9-(6-(methyl((5-methylfuran-2-yl)methyl)amino)pyridin-3-yl)naphtho[2,3-c]furan-1(3H)-one] yielded a CC50 at 66 h of 1630 nM. In addition, in data set [2], the EC50 was 178 nM.
For `COc1cc2cc3c(c(-c4ccc5c(c4)OC(F)(F)O5)c2cc1OC)C(=O)OC3` [Example 221, 9-(2,2-difluorobenzo[d][1,3]dioxol-5-yl)-6,7-dimethoxynaphtho[2,3-c]furan-1(3H)-one] the same measures were 752 nM and 249 nM.
